pKi: −log10 of the molar value.
Target: D(3) dopamine receptor (Homo sapiens, UniProt P35462)

Sequences of proteins named here, by UniProt entry; tags and fusion partners are left off.
UniProt P35462, whole entry: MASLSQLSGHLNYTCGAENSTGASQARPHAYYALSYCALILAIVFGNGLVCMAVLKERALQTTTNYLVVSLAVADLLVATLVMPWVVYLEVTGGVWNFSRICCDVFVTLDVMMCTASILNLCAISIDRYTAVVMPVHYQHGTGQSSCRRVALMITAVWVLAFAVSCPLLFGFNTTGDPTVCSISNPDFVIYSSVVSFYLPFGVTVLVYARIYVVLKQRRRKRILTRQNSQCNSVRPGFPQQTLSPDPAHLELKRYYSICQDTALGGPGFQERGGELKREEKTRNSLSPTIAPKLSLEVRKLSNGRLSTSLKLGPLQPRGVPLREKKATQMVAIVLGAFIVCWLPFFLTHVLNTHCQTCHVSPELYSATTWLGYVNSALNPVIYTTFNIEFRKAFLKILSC

pKi: 6.92
SMILES: CCN1CCC[C@H]1CNC(=O)c1cc(S(N)(=O)=O)ccc1OC [SULPIRIDE]

Source: ChEMBL document CHEMBL1141881, “Modeling the similarity and divergence of dopamine D2-like receptors and identification of validated ligand-receptor complexes” (J Med Chem, 2005)
